As usually defined, the IC50 is the concentration that inhibits the measured activity by half. Low readings indicate greater potency in that assay, high ones weaker potency in that assay.

The assay concerns the target T1, Alpha-1A adrenergic receptor (Bos taurus, UniProt P18130).
T1 sequence (P18130 whole entry): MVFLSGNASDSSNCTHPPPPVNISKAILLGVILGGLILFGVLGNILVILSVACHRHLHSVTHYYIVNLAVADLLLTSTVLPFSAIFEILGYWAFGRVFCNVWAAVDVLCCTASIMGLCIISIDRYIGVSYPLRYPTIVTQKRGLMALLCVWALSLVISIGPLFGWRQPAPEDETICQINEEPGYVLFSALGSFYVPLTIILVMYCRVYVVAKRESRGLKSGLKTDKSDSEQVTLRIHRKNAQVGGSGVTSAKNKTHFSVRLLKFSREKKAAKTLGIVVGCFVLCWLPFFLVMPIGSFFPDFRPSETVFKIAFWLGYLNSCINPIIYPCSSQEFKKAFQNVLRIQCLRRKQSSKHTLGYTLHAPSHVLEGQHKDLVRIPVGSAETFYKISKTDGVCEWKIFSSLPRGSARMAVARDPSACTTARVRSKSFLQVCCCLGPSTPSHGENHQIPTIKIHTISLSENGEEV
Kind of assay: Affinity towards Alpha-1A adrenergic receptor in membranes from bovine frontal cortex using [3H]prazosin. In kind it is tissue-based.

`CN1CCN(C2=Nc3cc(Cl)ccc3Nc3ccccc32)CC1` [CLOZAPINE] showed an IC50 of 0.16 µM.

Source of the values: ChEMBL document CHEMBL1131240, “Novel benzothiazolin-2-one and benzoxazin-3-one arylpiperazine derivatives with mixed 5HT1A/D2 affinity as potential atypical antipsychotics” (J Med Chem, 1998).
